Paper PMC5797947

Assays:
Assay in all cases: SPR
[1] = molecular target: HAT-2nM, high-affinity TCR heterodimer, biotinylated
[2] = molecular target: HAT-140pM, high-affinity TCR heterodimer, biotinylated
[3] = molecular target: HAT-40pM, high-affinity TCR heterodimer, biotinylated

pHLA-vrt3: HLA-A0201 with the NS3-1406 variant peptide vrt3 (from UniProt P61769 21-119) (peptide-MHC)
Kd [1]: 180 nM
Kd [2]: 54 nM
Kd [3]: 2.7 nM
